Source: PubChem BioAssay AID493244 (The Scripps Research Institute Molecular Screening Center, 2011)
This is a selection; strong and weak results do not stand in their true shares. Active and inactive are the calls of the source.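 The calls were made as follows: active = inhibition above the mean inhibition of all tested compounds plus 3 SD (cut at about 17% in these data); inactive = the rest.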

target: Troponin I, cardiac muscle (Homo sapiens) + Troponin T, cardiac muscle (Homo sapiens) + Troponin C, slow skeletal and cardiac muscles (Homo sapiens) (UniProt P19429+P45379+P63316); experiment: calcium desensitizers of cardiac thin filaments – biochemical, IANBD-TnC fluorescence, EC70 calcium, primary screen (AID 493244); conditions: IANBD-labeled cardiac RTF, Ca2+ fluorescence; at 7.15 µM; hits give high values

Row | Structure (SMILES) | inhibition
1 | CN1CCC(Nc2ccc(F)c(Cl)c2)CC1 | inactive: -3.3%
2 | CCOc1ncccc1C(=O)NCC1(N2CCOCC2)CCCCC1 | inactive: -6.64%
3 | O=C(O)C1(Nc2ccccc2)CCN(Cc2ccccc2)CC1 | inactive: -3.53%
4 | CC(C)(C)OC(=O)N1CCC(Nc2ccccc2)CC1 | inactive: -9.56%
5 | CCCOc1ccc(C(=O)NCC2(N(C)C)CCCCC2)cc1 | inactive: -6.7%
6 | COc1cc(OC)cc(C(=O)NCC2(N3CCOCC3)CCCCC2)c1 | inactive: 2.93%
7 | COc1cccc(C(=O)N(c2cc(C)cc(C)c2)C2CCN(C(=O)OC(C)(C)C)CC2)c1 | inactive: -8.53%
8 | CCC(CO)(C(=O)OC1CN2CCC1CC2)c1ccccc1 (centres undefined) | inactive: 7.33%
9 | CN1CCC(Nc2ccc(Cl)cc2)CC1 | inactive: -0.87%
10 | CC(=O)N(c1ccccc1)C1CCNCC1 | inactive: 0.4%
11 | COc1cc(OC)cc(C(=O)NCC2(N3CCCCC3)CCCCC2)c1 | inactive: 3.24%
12 | Fc1ccccc1NC1CCN(Cc2ccccc2)CC1 | inactive: -10.8%
13 | Cc1ccc(C(=O)NCC2(N3CCCCC3)CCCCC2)o1 | inactive: -7.5%
14 | Cc1ccc(NC2(C#N)CCN(Cc3ccccc3)CC2)cc1 | inactive: -3.19%
15 | CCN1CCC(Nc2cccc(F)c2)CC1 | inactive: -10.8%
16 | Cc1ccccc1NC1(C#N)CCN(Cc2ccccc2)CC1 | inactive: -1.78%
17 | Cn1c(=O)[nH]cc(N(CCCl)CCCl)c1=O | inactive: -6.3%
18 | CN(C)c1ccc(C(=O)NCC2(N3CCCCC3)CCCCC2)cc1 | inactive: -4.29%
19 | O=C(NCC1(N2CCCCC2)CCCCC1)c1ccco1 | inactive: -2.03%
20 | N#Cc1ccc(C(=O)NCC2(N3CCCCC3)CCCCC2)cc1 | inactive: 1.16%
21 | CC(C)(C)OC(=O)N1CCC(N(C(=O)c2ccccc2)c2ccc(Cl)cc2)CC1 | inactive: 3.03%
22 | CN(C)C1(CNC(=O)c2cccc(C#N)c2)CCCCC1 | inactive: -2.43%
23 | CCCN1CCC(Nc2cc(OC)cc(OC)c2)CC1 | inactive: -9.2%
24 | Cc1cc(N(CCCl)CCCl)ccc1C=O | inactive: 1.14%
25 | c1ccc(CN2CCC(Nc3ccccc3)CC2)cc1 | inactive: -1.29%

Row | Structure (SMILES) | inhibition
26 | COc1cc(C(=O)NCC2(N3CCOCC3)CCCCC2)cc(OC)c1C | inactive: -3.5%
27 | O=C(NCC1(N2CCOCC2)CCCCC1)c1cc(Br)ccc1Cl | inactive: 0.94%
28 | COc1ccc(C(=O)NCC2(N3CCOCC3)CCCCC2)cc1OC | inactive: 0.49%
29 | CCOC(=O)N1CCC(Nc2ccc(C)cc2)CC1 | inactive: 2.62%
30 | N/C(=N\O)c1c(N)no[n+]1[O-] | inactive: -8.27%
31 | O=C(OC1CN2CCC1CC2)C1c2ccccc2C=Cc2ccccc21 (centres undefined) | inactive: 4.82%
32 | CC(C)c1ccc(NC2CCN(C(=O)OC(C)(C)C)CC2)cc1 | inactive: -15.4%
33 | CN(C)c1cccc(C(=O)NCC2(N3CCCCC3)CCCCC2)c1 | inactive: -6.77%
34 | COc1ccc(CN(CCCl)CCCl)cc1Cl | inactive: -1.1%
35 | O=C(NCC1(N2CCOCC2)CCCCC1)c1cc(F)c(F)cc1Cl | inactive: -2.91%
36 | COc1cc(OC)c(C(=O)NCC2(N(C)C)CCCCC2)cc1OC | inactive: 5.28%
37 | O=C(NCC1(N2CCCCC2)CCCCC1)c1cncc(Br)c1 | inactive: -6.43%
38 | CN1CCC(Nc2cccc(F)c2)CC1 | inactive: -17.9%
39 | CCCOc1ccc(C(=O)NCC2(N(C)C)CCCCC2)cc1OC | inactive: -7%
40 | O=C(NCC1(N2CCCCC2)CCCCC1)c1ccc(OC(F)F)cc1 | inactive: -17.7%
41 | N#CC1(Nc2ccccc2)CCN(CCc2ccccc2)CC1 | inactive: -24.9%
42 | CCN1CCC(Nc2ccc(Cl)cc2)CC1 | inactive: -9.6%
43 | O=C(NCC1(N2CCCCC2)CCCCC1)c1cccc([N+](=O)[O-])c1 | inactive: 7.57%
44 | CSc1ccc(C(=O)NCC2(N3CCOCC3)CCCCC2)cc1 | inactive: -5.8%
45 | O=C(NCC1(N2CCCCC2)CCCCC1)c1cccc(C(F)(F)F)c1 | inactive: -19.6%
46 | COc1cc(C(=O)NCC2(N3CCCCC3)CCCCC2)ccc1OC(F)F | inactive: -19.8%
47 | O=C(NCC1(N2CCOCC2)CCCCC1)c1cc(=O)[nH]c2ccccc12 | inactive: -9.88%
48 | CN1CCN(CCOC(=O)C(O)(c2ccccc2)c2ccccc2)CC1 | inactive: -12.4%
49 | COc1ccc(NC2CCN(C(=O)OC(C)(C)C)CC2)cc1 | inactive: 4.6%
50 | CC(C)c1ccc(C(=O)NCC2(N3CCOCC3)CCCCC2)cc1 | inactive: -2.88%

Row | Structure (SMILES) | inhibition
51 | O=C1CCN(Cc2ccccc2)CC1 | inactive: -7.62%
52 | CCOc1ccc(C)cc1CN(CCCl)CCCl | inactive: -10.2%
53 | COc1ccc(NC2CCN(CCc3ccccc3)CC2)c(OC)c1 | inactive: -2.1%
54 | CCOC(=O)N1CCC(Nc2ccc(F)cc2)CC1 | inactive: -6.74%
55 | O=C(NCC1(N2CCCCC2)CCCCC1)c1ccc(F)cc1 | inactive: 3.24%
56 | O=P1(N(CCCl)CCCl)SCCCS1 | inactive: -3.34%
57 | CCCCOc1ccc(C(=O)NCC2(N3CCOCC3)CCCCC2)cc1 | inactive: -7.73%
58 | COc1cc(C(=O)NCC2(N(C)C)CCCCC2)ccc1OC(F)F | inactive: 0.12%
59 | CCOC(=O)N1CCC(Nc2cccc(C)c2)CC1 | inactive: -5.03%
60 | COc1ccc(C(=O)NCC2(N3CCCCC3)CCCCC2)c(OC)c1OC | inactive: -7.01%
61 | CC(C)(C)OC(=O)N1CCC(N(C(=O)c2ccccc2)c2ccc(F)cc2)CC1 | inactive: -7.12%
62 | COc1ccc(C(=O)NCC2(N3CCCCC3)CCCCC2)cc1 | inactive: -5.02%
63 | O=C(NCC1(N2CCCCC2)CCCCC1)c1cccs1 | inactive: 7.35%
64 | O=C(NCC1(N2CCCCC2)CCCCC1)c1ccc(=O)[nH]c1 | inactive: -0.14%
65 | Cc1cccc(NC2(C#N)CCN(Cc3ccccc3)CC2)c1 | inactive: -12.3%
66 | CSc1ccccc1C(=O)NCC1(N2CCCCC2)CCCCC1 | inactive: -6.09%
67 | Cc1cc(C)cc(N(C(=O)c2ccccc2)C2CCN(C(=O)OC(C)(C)C)CC2)c1 | inactive: 0.01%
68 | O=C(NCC1(N2CCCCC2)CCCCC1)c1ccc(Cl)nc1 | inactive: -8.04%
69 | O=C(NCC1(N2CCOCC2)CCCCC1)c1cc2ccccc2o1 | inactive: -4.54%
70 | COc1ccc(Cl)cc1C(=O)NCC1(N2CCOCC2)CCCCC1 | inactive: -2.3%
71 | O=C(OC1CN2CCC1CC2)C1c2ccccc2Oc2ccccc21 (centres undefined) | inactive: -2.87%
72 | O=C(NCC1(N2CCCCC2)CCCCC1)c1ccc(Cl)s1 | inactive: -7.56%
73 | N#CC1(Nc2ccccc2)CCN(Cc2ccccc2)CC1 | inactive: -7.57%
74 | CCOC(=O)N1CCC(Nc2ccc(OC)cc2)CC1 | inactive: -3.23%
